Assay results taken from PubChem BioAssay AID1508609 (The Scripps Research Institute Molecular Screening Center, 2020).
Only a part is listed here, and it is no random draw. Activity calls are given as the source filed them.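 Rule for the calls: active = mean percent activation across replicates above the confirmation screen cutoff of 4.91%; inactive = the rest.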

Chains of the proteins cited; added tags and fusions are not shown. Lines headed by an entry give the natural chain unless they say otherwise; changes in a name come on top.
UniProt Q8TDV0: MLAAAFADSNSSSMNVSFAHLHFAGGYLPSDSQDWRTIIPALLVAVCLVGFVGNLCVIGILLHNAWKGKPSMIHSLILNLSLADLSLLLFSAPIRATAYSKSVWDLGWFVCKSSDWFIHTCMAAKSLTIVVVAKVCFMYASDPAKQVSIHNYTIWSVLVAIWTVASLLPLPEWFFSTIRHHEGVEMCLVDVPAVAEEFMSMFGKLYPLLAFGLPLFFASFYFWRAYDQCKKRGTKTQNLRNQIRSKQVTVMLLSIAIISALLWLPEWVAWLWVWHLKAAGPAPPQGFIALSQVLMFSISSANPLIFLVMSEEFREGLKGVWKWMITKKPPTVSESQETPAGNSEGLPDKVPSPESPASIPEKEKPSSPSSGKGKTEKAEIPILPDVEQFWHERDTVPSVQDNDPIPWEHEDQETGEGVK

Target: G-protein coupled receptor 151 (Homo sapiens) (UniProt Q8TDV0)
Assay: GPR151 activators, triplicate retest, confirmation, cell-based, PathHunter beta-arrestin, luminescence (AID 1508609)
Conditions: GPR151 PathHunter beta-arrestin cells, 90 min, at 11.2 µM, stronger effect = higher value, % of EA-reagent control over plate median

Compound | activation
Cc1cc(Br)c(Nc2c([N+](=O)[O-])cc([N+](=O)[O-])c3nonc23)cc1[N+](=O)[O-] | inactive: -0.96%
O=C(Nc1cccc(F)c1)N(Cc1cccnc1)C1CCN(CCc2cccs2)CC1 | inactive: -0.38%
